Tested on: MX-1 human mammary tumor
Experiment: Anti-tumor effects in mice, subcutaneous MX-1 tumor implant
Conditions: for Tumor-Free: tumor-free/animals
Description: Female, 7 weeks old NCr-nu athymic nude mice were purchased from Charles River Laboratories (Raliegh, NC) and acclimated in the laboratories one week prior to experimentation. The animals were housed in microisolator cages, at five per cage, in a 12-hour light/dark cycle. The animals received filtered sterilized water and sterile rodent food ad libitum. Animals were observed daily, and clinical signs such as tumor shrinkage were noted.
Tumor Model. Thirty- to forty mg fragments of MX-1 human mammary tumor were implanted subcutaneously in mice near the right axillary area, using a 12-gauge trocar needle and allowed to grow. Tumors were allowed to reach 75-196 mg in weight (75-196 mm^3 in size) before the start of treatment.
Drug Treatment. Compound 3 was administered intraperitoneally for five consecutive days at dosages of 55, 75, and 100 mg/kg/dose. Compound 3 was formulated fresh daily at a concentration of 10mg/mL in 5% EtOH/45% propylene glycol/50% PBS. Dosing solutions were administered to mice within 4 hours of formulation. Compounds were administered by exact body weight, with the injection volume being 0.1mL/10g body weight.
Tumor measurements. The tumors were measured, and the animals were weighed twice weekly, starting with the first day of treatment. Tumor volume was determined by caliper measurements (mm) and using the formula for an ellipsoid sphere L x W^2/2=mm^3, where L and W refer to the larger and smaller dimensions collected at each measurement. This formula was also used to calculate tumor weight, assuming a unit density (1 mm^3 = 1 mg).
Study duration was 28 days after tumor implantation. Any animal whose tumor reached 4 g in weight was sacrificed prior to study termination.

[1] = 55 mg/kg/dose intraperitoneally for five consecutive days
[2] = 75 mg/kg/dose intraperitoneally for five consecutive days
[3] = 100 mg/kg/dose intraperitoneally for five consecutive days

In the case of `O=P(OCCO)(N(CCCl)CCCl)N(CCCl)CCCl`, the “Days to Doubling” value [1] is reported as 7.2 days, the “Tumor Regression Complete Regression” value [1] is reported as 0 and the “Tumor Regression Partial Regression” value [1] is reported as 0. The Tumor-Free [1] was 0/8, the “Days to Doubling” value [2] was 8.1 days and the “Tumor Regression Complete Regression” value [2] was 0. The “Tumor Regression Partial Regression” value [2] was 0, the Tumor-Free [2] was 0/8 and the “Days to Doubling” value [3] was 7.7 days. For the same compound, the “Tumor Regression Complete Regression” value [3] was 0, the “Tumor Regression Partial Regression” value [3] was 0 and the Tumor-Free [3] was 0/8.

Source: patent EP1607399B1 (priority 2000, dated 2001)
